This is an account of results in patent US10577361B2, “Dopamine D3 receptor antagonists having a morpholine moiety” (Indivior UK Limited, priority 2015, dated 2020).

By UniProt entry, the sequences of proteins in these tests, tags left out. Where a name states a change or a piece, a line headed by the entry shows the natural chain unless it says otherwise.
UniProt P14416, whole entry: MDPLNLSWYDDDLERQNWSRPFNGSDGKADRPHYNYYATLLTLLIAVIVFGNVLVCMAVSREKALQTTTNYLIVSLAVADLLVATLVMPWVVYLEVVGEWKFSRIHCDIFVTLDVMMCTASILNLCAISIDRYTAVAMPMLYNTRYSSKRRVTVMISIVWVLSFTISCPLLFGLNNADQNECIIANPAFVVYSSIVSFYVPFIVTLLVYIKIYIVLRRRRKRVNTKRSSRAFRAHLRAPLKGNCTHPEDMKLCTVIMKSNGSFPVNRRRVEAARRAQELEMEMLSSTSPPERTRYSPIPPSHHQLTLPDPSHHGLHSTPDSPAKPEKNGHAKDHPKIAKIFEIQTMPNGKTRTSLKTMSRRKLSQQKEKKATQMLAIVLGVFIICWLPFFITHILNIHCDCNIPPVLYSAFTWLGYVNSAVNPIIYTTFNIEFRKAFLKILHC
UniProt P35462, whole entry: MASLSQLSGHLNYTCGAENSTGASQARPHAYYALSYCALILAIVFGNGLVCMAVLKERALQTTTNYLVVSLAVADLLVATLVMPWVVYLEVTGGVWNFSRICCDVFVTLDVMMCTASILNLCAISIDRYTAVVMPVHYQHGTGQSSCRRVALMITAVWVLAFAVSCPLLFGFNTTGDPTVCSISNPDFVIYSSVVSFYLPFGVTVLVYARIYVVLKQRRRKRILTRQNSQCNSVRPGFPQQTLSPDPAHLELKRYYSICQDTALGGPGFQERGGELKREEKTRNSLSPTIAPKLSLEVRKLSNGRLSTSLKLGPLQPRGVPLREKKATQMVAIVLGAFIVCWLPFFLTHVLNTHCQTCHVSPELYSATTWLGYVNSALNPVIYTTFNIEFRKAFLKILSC

Experiment [1] addresses human dopamine receptor type 2, long variant (hD2L) (Homo sapiens (Human), UniProt P14416). Put plainly: [3H]-Spiperone binding assay at hD2 recombinant receptor (CHO-Gα16-hD2L membranes). As to the method:
[^3H]-Spiperone Binding Assay at hD2 Recombinant Receptor CHO cells stably expressing human dopamine receptor type 2, long variant (hD2L), coupled to Gα16 protein (CHO-Gα16-hD2L) were re-suspended in 20 mM HEPES, 2 mM EDTA (pH 7.4), homogenised and centrifuged at 40,000 g (20 min, 4° C.). After re-suspension, homogenization and centrifugation as above, the final pellet was re-suspended in 20 mM HEPES, 100 mM NaCl, 10 mM MgCl2, 1 mM EDTA (pH 7.4) and aliquots were kept at −80° C. [^3H]-Spiperone Binding experiments were performed in 96 deep-well polypropylene plates in 50 mM Tris/HCl, 120 mM NaCl, 5 mM KCl, 5 mM MgCl2 (pH 7.4). […] Displacement was performed in the presence of 0.08 nM [^3H]-Spiperone. The reaction was initiated by the addition of membrane suspension (2 μg of protein for CHO-hD2 membranes) and lasted for 120 min at 23° C. in a final volume of 1000 μl. Non specific binding (NSB) was determined in the presence of 0.1 μM Spiperone. The binding reaction was stopped by rapid filtration through GF/B filterplates pre-soaked in 0.5% polyetylenimmine (PEI) using a Packard cell harvester. After washing with ice-cold 0.9% NaCl, the plate was left to dry before the addition of Microscint 20 (50 μl/well, PerkinElmer). Radioactivity was counted with a TopCount (PerkinElmer). […] Saturation binding experiments were performed similar to the competition binding experiments using a radioligand concentrations ranging from 0.011 to 3.0 nM. […] Is Clozapine selective for the dopamine D4 receptor? […] Real-time analysis of dopamine: antagonist interactions at recombinant human D2long receptor upon modulation of its activation state. Brit. J.

Experiment [2] concerns the target human dopamine type 3 receptor (hD3) (Homo sapiens (Human), UniProt P35462). As to the kind of experiment: [3H]-Spiperone binding assay at hD3 recombinant receptor (CHO-hD3 membranes). To be noted: pKi only estimated to be accurate to about ±0.3-0.5. As to the method:
[^3H]-Spiperone Binding Assay at hD3 and hD4 recombinant receptors CHO cells transiently transfected with human dopamine type 3 or 4 receptors (CHO-hD3 or CHO-hD4, respectively), were re-suspended in 20 mM HEPES, 2 mM EDTA (pH 7.4), homogenised and centrifuged at 40,000 g (20 min, 4° C.). After re-suspension, homogenization and centrifugation as above, the final pellet was re-suspended in 20 mM HEPES, 100 mM NaCl, 10 mM MgCl2, 1 mM EDTA (pH 7.4) and aliquots were kept at −80° C. [^3H]-Spiperone Binding experiments were performed in 96 deep-well polypropylene plates in 50 mM Tris/HCl, 120 mM NaCl, 5 mM KCl, 5 mM MgCl2 (pH 7.4). Compounds of invention were serially diluted in DMSO at 100 fold final concentrations in the assay (1% DMSO final in the assay). Displacement was performed in the presence of 0.3 nM [^3H]-Spiperone. The reaction was initiated by the addition of membrane suspension (4 μg and 12 μg of protein for CHO-hD3- and CHO-hD4 membranes, respectively) and lasted for 90 or 100 min (for hD3 or hD4 membranes, respectively) at 23° C. in a final volume of 500 μl. Non specific binding (NSB) was determined in the presence of 1 μM Spiperone. […] Radioactivity was counted with a TopCount (PerkinElmer). Data were analysed by non-linear regression analysis using GraphPad Prism 5.0 (GraphPad Software). […]

On to `Cn1c(SCCCN2CCOC(c3ccc(C(F)(F)F)cc3F)C2)nnc1-c1ccc(C(N)=O)cc1` (stereo not drawn) [Example 35], for which the “D2 p Ki” value in experiment [1] came out at 4.84.

Take `Cn1c(SCCCN2CCOC(c3ccc(C(F)(F)F)cc3)C2)nnc1-c1cnccn1` (stereo not drawn) [Example 19, 4-(3-{[4-methyl-5-(pyrazin-2-yl)-4H-1,2,4-triazol-3-yl]sulfanyl}propyl)-2-[4-(trifluoromethyl)phenyl]morpholine]: the “D2 p Ki” value in experiment [1] is reported as 4.99. Still for that read-out and setting: with `Cn1c(SCCCN2CCOC(c3ccc(C(F)(F)F)cc3)C2)nnc1-c1ccc(C(N)=O)nc1` (stereo not drawn) [Example 20, 5-{4-methyl-5-[(3-{2-[4-(trifluoromethyl)phenyl]morpholin-4-yl}propyl)sulfanyl]-4H-1,2,4-triazol-3-yl}pyridine-2-carboxamide] the figure was 4.61. With `Cc1ncoc1-c1nnc(SCCCN2CCO[C@H](c3ccc(C(F)(F)F)cc3)C2)n1C` (single isomer, unassigned) [Example 9, (2R or 2S)-4-(3-{[4-methyl-5-(4-methyl-1,3-oxazol-5-yl)-4H-1,2,4-triazol-3-yl]sulfanyl)}propyl)-2-[4-(trifluoromethyl)phenyl]morpholine], in experiment [2], the “D3 p Ki” value is 7.76. On the same count and under the same terms, with `Cc1ncoc1-c1nnc(SCCCN2CCOC(c3ccc(C(F)(F)F)cc3)C2)n1C` (stereo not drawn) [Example 7, 4-(3-{[4-methyl-5-(4-methyl-1,3-oxazol-5-yl)-4H-1,2,4-triazol-3-yl]sulfanyl}propyl)-2-[4-(trifluoromethyl)phenyl]morpholine] the figure was 6.9. In the case of `Cc1ncoc1-c1nnc(SCCCN2CCOC(c3ccc(Br)cc3)C2)n1C` (stereo not drawn) [Example 38, 2-(4-bromophenyl)-4-(3-{[4-methyl-5-(4-methyl-1,3-oxazol-5-yl)-4H-1,2,4-triazol-3-yl]sulfanyl}propyl)morpholine], in experiment [1], the “D2 p Ki” value was 4.82.
